Test system: degradation activity of chloroplast extract (ATP-dependent, soluble metallopeptidase activity)
Assay: Degradation assay with chloroplast extract
Format: biochemical
Settings: 20 mM ATP added back to extract preincubated with 100 units/ml apyrase

original subfragment detected after 30 min: 49%
SMILES: Nc1ncnc2c1ncn2[C@@H]1O[C@H](COP(=O)(O)OP(=O)(O)OP(=O)(O)O)[C@@H](O)[C@H]1O [ATP]
